From PubChem BioAssay AID1813 (Broad Institute, 2009)
Only a part is listed here, and it is no random draw. Calls of active or inactive are those of the source. Cut-off read from the data, not from the text of the source: active = inhibition above about 60%; inconclusive = no clear call, values can overlap the other calls; inactive = below that.

Assay: 5' untranslated region of α-synuclein, MLPCN primary screen (AID 1813);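 note: H4 neuroglioblastoma cells stably carrying SNCA 5'UTR luciferase fusion; 0% = DMSO wells and 100% = positive control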
Conditions: alpha-synuclein 5'UTR reporter, inhibitor activity; stronger effect = higher value; tested at 7.5 µM

Row | SMILES | inhibition
1 | CCc1cc(C(=O)NCC2(N3CCCCC3)CCCCC2)sc1C | inactive: -2.82%
2 | O=C(OC1CN2CCC1CC2)C1c2ccccc2C=Cc2ccccc21 (centres undefined) | inactive: 17.9%
3 | N/C(=N\O)c1c(N)no[n+]1[O-] | inactive: 5.6%
4 | CCOC(=O)N1CCC(Nc2ccc(C)cc2)CC1 | inactive: -3.64%
5 | COc1ccc(C(=O)NCC2(N3CCOCC3)CCCCC2)cc1OC | inactive: 9.98%
6 | c1ccc(CN2CCC(Nc3ccccc3)CC2)cc1 | inactive: 3.88%
7 | CCCN1CCC(Nc2cc(OC)cc(OC)c2)CC1 | inactive: -13.8%
8 | CN(C)C1(CNC(=O)c2cccc(C#N)c2)CCCCC1 | inactive: -8.61%
9 | CC(C)(C)OC(=O)N1CCC(N(C(=O)c2ccccc2)c2ccc(Cl)cc2)CC1 | inactive: 1.92%
10 | N#Cc1ccc(C(=O)NCC2(N3CCCCC3)CCCCC2)cc1 | inactive: 10.7%
11 | CN(C)c1ccc(C(=O)NCC2(N3CCCCC3)CCCCC2)cc1 | inactive: -16.5%
12 | CCN1CCC(Nc2cccc(F)c2)CC1 | inactive: 13.8%
13 | Cc1ccc(C(=O)NCC2(N3CCCCC3)CCCCC2)o1 | inactive: 11.6%
14 | Fc1ccccc1NC1CCN(Cc2ccccc2)CC1 | inactive: 15.7%
15 | COc1cc(OC)cc(C(=O)NCC2(N3CCCCC3)CCCCC2)c1 | inactive: 2.75%
16 | CCCOc1ccc(C)cc1CN(CCCl)CCCl | inactive: -10.8%
17 | CN1CCC(Nc2ccc(Cl)cc2)CC1 | inactive: 6.43%
18 | CCC(CO)(C(=O)OC1CN2CCC1CC2)c1ccccc1 (centres undefined) | inactive: -14.8%
19 | COc1cc(OC)cc(C(=O)NCC2(N3CCOCC3)CCCCC2)c1 | inactive: -7.68%
20 | COc1cccc(C(=O)N(c2cc(C)cc(C)c2)C2CCN(C(=O)OC(C)(C)C)CC2)c1 | inactive: 38.8%

Row | SMILES | inhibition
21 | CCCOc1ccc(C(=O)NCC2(N(C)C)CCCCC2)cc1 | inactive: 0.994%
22 | CC(C)(C)OC(=O)N1CCC(Nc2ccccc2)CC1 | inactive: -8.53%
23 | O=C(O)C1(Nc2ccccc2)CCN(Cc2ccccc2)CC1 | inactive: -9.77%
24 | CCOc1ncccc1C(=O)NCC1(N2CCOCC2)CCCCC1 | inactive: 18.1%
25 | CN1CCC(Nc2ccc(F)c(Cl)c2)CC1 | inactive: 4.26%
26 | CCOC(=O)N1CCC(Nc2ccc(OC)cc2)CC1 | inactive: -4.95%
27 | N#CC1(Nc2ccccc2)CCN(Cc2ccccc2)CC1 | inactive: -8%
28 | O=C(OC1CN2CCC1CC2)C1c2ccccc2Oc2ccccc21 (centres undefined) | inactive: -4.29%
29 | O=C(NCC1(N2CCOCC2)CCCCC1)c1cc2ccccc2o1 | inactive: -20.4%
30 | O=C(NCC1(N2CCCCC2)CCCCC1)c1ccc(Cl)nc1 | inactive: -21.1%
31 | Cc1cc(C)cc(N(C(=O)c2ccccc2)C2CCN(C(=O)OC(C)(C)C)CC2)c1 | inactive: 34%
32 | CSc1ccccc1C(=O)NCC1(N2CCCCC2)CCCCC1 | inactive: 17%
33 | O=C(NCC1(N2CCCCC2)CCCCC1)c1ccc(=O)[nH]c1 | inactive: -12.9%
34 | O=C(NCC1(N2CCCCC2)CCCCC1)c1cccs1 | inactive: 0.338%
35 | COc1ccc(C(=O)NCC2(N3CCCCC3)CCCCC2)cc1 | inactive: -8.69%
36 | CC(C)(C)OC(=O)N1CCC(N(C(=O)c2ccccc2)c2ccc(F)cc2)CC1 | inactive: 11.6%
37 | COc1ccc(C(=O)NCC2(N3CCCCC3)CCCCC2)c(OC)c1OC | inactive: -4.48%
38 | CCOC(=O)N1CCC(Nc2cccc(C)c2)CC1 | inactive: -9.04%
39 | COc1cc(C(=O)NCC2(N(C)C)CCCCC2)ccc1OC(F)F | inactive: -21.6%
40 | Cc1ccc(OCC(C)C)c(CN(CCCl)CCCl)c1 | inactive: -12.3%

Row | SMILES | inhibition
41 | O=C(NCC1(N2CCCCC2)CCCCC1)c1ccc(F)cc1 | inactive: -18.5%
42 | COc1ccc(NC2CCN(CCc3ccccc3)CC2)c(OC)c1 | inactive: 15.5%
43 | CCOC(=O)N1CCC(Nc2ccc(F)cc2)CC1 | inactive: -29.3%
44 | CCOc1ccc(C)cc1CN(CCCl)CCCl | inactive: 4.47%
45 | CN1CCN(CCOC(=O)C(O)(c2ccccc2)c2ccccc2)CC1 | inactive: -12.5%
46 | COc1ccc(NC2CCN(C(=O)OC(C)(C)C)CC2)cc1 | inactive: 13.4%
47 | COc1cc(C(=O)NCC2(N3CCCCC3)CCCCC2)ccc1OC(F)F | inactive: 1.98%
48 | O=C(NCC1(N2CCOCC2)CCCCC1)c1cc(=O)[nH]c2ccccc12 | inactive: -0.527%
49 | O=C(NCC1(N2CCCCC2)CCCCC1)c1cccc(C(F)(F)F)c1 | inactive: -12%
50 | O=C(NCC1(N2CCCCC2)CCCCC1)c1cccc([N+](=O)[O-])c1 | inactive: -0.214%
51 | CCN1CCC(Nc2ccc(Cl)cc2)CC1 | inactive: 6.14%
52 | N#CC1(Nc2ccccc2)CCN(CCc2ccccc2)CC1 | inactive: 1.22%
53 | O=C(NCC1(N2CCCCC2)CCCCC1)c1ccc(OC(F)F)cc1 | inactive: -13.6%
54 | CCCOc1ccc(C(=O)NCC2(N(C)C)CCCCC2)cc1OC | inactive: -4.04%
55 | CN1CCC(Nc2cccc(F)c2)CC1 | inactive: -21.1%
56 | COc1cc(OC)c(C(=O)NCC2(N(C)C)CCCCC2)cc1OC | inactive: 3.37%
57 | COc1ccc(CN(CCCl)CCCl)cc1Cl | inactive: 10.4%
58 | CN(C)c1cccc(C(=O)NCC2(N3CCCCC3)CCCCC2)c1 | inactive: -8.74%
59 | CC(C)c1ccc(NC2CCN(C(=O)OC(C)(C)C)CC2)cc1 | inactive: -72.9%
